Reference: patent US9051265B2, “N-benzylindole modulators of PPARG” (The Scripps Research Institute, priority 2011, dated 2015)

Amino acid sequences for entries named in this document (tags omitted). Residues count along the entry.
UniProt P37231, 238-503: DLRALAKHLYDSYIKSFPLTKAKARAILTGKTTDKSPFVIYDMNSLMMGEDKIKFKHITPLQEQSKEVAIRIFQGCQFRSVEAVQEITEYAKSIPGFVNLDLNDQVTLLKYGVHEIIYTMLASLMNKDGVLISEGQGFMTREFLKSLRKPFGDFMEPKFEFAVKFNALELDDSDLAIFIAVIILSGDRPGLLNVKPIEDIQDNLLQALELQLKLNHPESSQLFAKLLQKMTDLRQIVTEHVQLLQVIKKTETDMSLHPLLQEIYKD

Molecular target: Gal4-PPARg (human PPAR LBD fused to GAL4 DNA-binding domain) (Homo sapiens (Human), UniProt P37231)
Format: cell-based

**Q.** How did the “activation of the UAS-luc reporter” value turn out when `CN(CCOc1ccc(CC2SC(=O)NC2=O)cc1)c1ccccn1` (stereo not shown) [rosiglitazone] was run?
**A.** about 100 fold
